From PubChem BioAssay
Sampled rows, rich in hits. Any-hit rate of the full collection: about 2.8%.
MITF act: MITF TRPM1 promoter activation in melanoma cells; SK-MEL-5 TRPM1-promoter luciferase, 24 h; % of positive control, neutral wells = 0; activation, % at 12.5 µM; 300,000 tested, 0.75% active; AID 588334;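 active = mean activation of at least 80% with every replicate also reaching 80%; inconclusive = mean reaches 80% but some replicate falls short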
Wnt act: Wnt/beta-catenin pathway activation. Wnt/beta-catenin reporter cell assay, activator, plate reader. activation, % at 9.35 µM. 300,000 tested, 1.2% active; in the data active = activation above about 30%, passing the limit was not always enough; inconclusive = no clear call, values can overlap the other calls
PglD inh: blocks C. jejuni PglD acetyltransferase activity | purified PglD enzyme, DTNB colorimetric CoA detection | inhibition, % at 12.5 µM | 360,000 tested, 0.098% active | AID 602405; in the data active = inhibition above about 16%, passing the limit was not always enough; inconclusive = no clear call, values can overlap the other calls
esBAF inh: SWI/SNF esBAF complex inhibition. 350,000 tested, 2% active. mouse ES cells, Bmi1-luciferase knock-in reporter, 24 h; 100% = twice the neutral-well signal. reporter increase, % at 12.5 µM. AID 602393; in the data active = activation above about 40%; inconclusive = no clear call, values can overlap the other calls;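 also: a rise in the Bmi1 reporter signal indicates esBAF inhibition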
UUG fidelity: modulators of start codon recognition fidelity in yeast; S. cerevisiae UUG-firefly luciferase reporter, luminescence/redox ratio; AID 602363; 350,000 tested, 0.13% active; activity score, % at 18.7 µM;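 active = replicate mean at a twofold rise or more, about +100% in these data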;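 also: firefly luciferase made from a UUG start codon reports start codon fidelity; reporter light over untreated wells divided by growth signal over untreated wells; some hits fall short of that in this replicate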
miR122 inh: blocks miR-122 activity in Huh7 sensor cells. Huh7 miR-122 Renilla luciferase sensor, 48 h; neutral wells = 0, positive control = 100. activation (reporter increase), % at 12.5 µM. 340,000 tested, 0.3% active. AID 602342;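 active = mean replicate activation score at least 90 and every replicate individually at or above 90; inconclusive = only one of the two criteria met; inactive = neither criterion met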;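 also: higher luciferase means less miR-122 activity so hits act as miR-122 inhibitors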
Hits are given with their value; n = inactive; u = inconclusive; x = not tested or not shown; [ ] = remark or other dose.

SMILES	MITF act	Wnt act	PglD inh	esBAF inh	UUG fidelity	miR122 inh
COc1ccc(-c2cc3cccc(OC)c3oc2=O)cc1	n	u	n	n	n	n
CNC[C@H]1Oc2ccc(NC(=O)CCC(F)(F)F)cc2CC(=O)N([C@@H](C)CO)C[C@H]1C	x	x	n	n	n	n
Cc1noc(C)c1S(=O)(=O)Nc1ccc2c(c1)C(=O)N([C@@H](C)CO)C[C@@H](C)[C@@H](CN(C)C(=O)Nc1ccc3c(c1)OCO3)OCCCC[C@@H](C)O2	x	x	n	n	n	n
O=C(NCC[C@H]1CC[C@H](NC(=O)c2cccnc2)[C@H](CO)O1)Nc1ccc(F)cc1	x	x	n	n	203	x
O=C(NCC[C@@H]1CC[C@H](NC(=O)c2cccnc2)[C@@H](CO)O1)Nc1ccc(C(F)(F)F)cc1	x	x	n	n	x	x
O=C(NCC[C@@H]1CC[C@@H](NC(=O)c2cccnc2)[C@H](CO)O1)Nc1ccc(C(F)(F)F)cc1	x	x	n	54	x	x
CO[C@H]1CN(C)C(=O)c2cc(NC(=O)Nc3ccccc3F)ccc2OC[C@@H](C)NC[C@H]1C	x	x	n	n	n	n
CCCNC(=O)N1C[C@@H](C)[C@@H](OC)CN(C)C(=O)c2cc(NS(C)(=O)=O)ccc2OC[C@@H]1C	x	x	n	n	x	x
CN1C(=O)c2cc(NC(=O)NCc3ccccc3)ccc2OC[C@@H]2O[C@H](CC(=O)NCC3CCCCC3)CC[C@@H]21	x	x	n	n	n	173[16.7 µM]
CCCC(=O)Nc1ccc2c(c1)C(=O)N(C)[C@H]1CC[C@@H](CC(=O)NCC(F)(F)F)O[C@H]1CO2	x	x	n	n	n	143[16.7 µM]
CN1C(=O)c2cc(NC(=O)Cc3cccs3)ccc2OC[C@@H]2O[C@H](CC(=O)NCC3CCCCC3)CC[C@H]21	x	x	n	n	n	n
CN1C(=O)c2cc(NC(=O)Cc3ccccc3)ccc2OC[C@@H]2O[C@@H](CC(=O)NCC3CC3)CC[C@@H]21	x	x	n	n	n	183[16.7 µM]
CN1C(=O)c2cc(NC(=O)NCc3ccccc3)ccc2OC[C@H]2O[C@H](CC(=O)NCC3CCCCC3)CC[C@H]21	x	x	n	n	n	n
CN1C(=O)c2cc(NC(=O)Cc3ccccc3)ccc2OC[C@H]2O[C@H](CC(=O)NCC3CC3)CC[C@@H]21	x	x	n	n	n	n
CN1C(=O)c2cc(NC(=O)Cc3cccs3)ccc2OC[C@@H]2O[C@H](CC(=O)NCC3CCCCC3)CC[C@@H]21	x	x	n	n	n	154[16.7 µM]
CCCC(=O)Nc1ccc2c(c1)C(=O)N(C)C[C@H](OC)[C@H](C)CN(Cc1ccncc1)[C@@H](C)CO2	x	x	x	n	x	n
C[C@@H]1CN([C@H](C)CO)C(=O)Cc2cc(NC(=O)Cn3cnnn3)ccc2O[C@@H]1CN(C)C(=O)Nc1ccc(C(F)(F)F)cc1	x	x	n	n	n	n
CO[C@H]1CC[C@H]2CCOc3c(C#N)cccc3C(=O)N(C)[C@H](C)C(=O)N(C)C[C@H]1O2	x	x	n	n	x	x
Cc1ccccc1NC(=O)Nc1ccc2c(c1)C(=O)N(C)[C@H]1CC[C@@H](CC(=O)NCC3CC3)O[C@H]1CO2	x	x	n	n	n	218[16.7 µM]
Brc1ccc(Cn2c(-c3cncs3)nc3ccccc32)cc1	x	x	n	n	n	n
c1ccc(Cn2c(-c3cncs3)nc3ccccc32)cc1	n	x	n	66	n	n
C[C@@H]1CCCCO[C@H](CN(C)C(=O)Nc2ccccc2)[C@@H](C)CN([C@H](C)CO)C(=O)c2cc(NS(=O)(=O)c3ccccc3)ccc2O1	x	x	n	n	n	n
O=C(C[C@@H]1C[C@H]2c3cc(NS(=O)(=O)c4ccc(F)cc4)ccc3O[C@H]2[C@H](CO)O1)N1CCCCC1	x	x	n	n	n	n
O=C(Nc1cccc(-c2cn3c(n2)SCC3)c1)c1ccc2ccccc2n1	n	41	n	60	n	n
Cc1cccc(/N=C/c2c(O)[nH]c3ccccc23)n1	n	x	x	74	x	n
SMILES	MITF act	Wnt act	PglD inh	esBAF inh	UUG fidelity	miR122 inh
CC(C)N=Cc1c(O)[nH]c2ccccc12	n	n	n	n	n	n
Cc1cccc(/N=C/c2sc3ccccc3c2O)n1	n	46	n	n	n	n
CC(C)CC#Cc1ccc2c(c1)O[C@@H](CN(C)C(=O)CN(C)C)[C@H](C)CN([C@H](C)CO)S2(=O)=O	x	x	n	n	n	n
COCc1cc(=O)[nH]c(Nc2nc3ccccc3o2)n1	n	n	n	50	n	n
Clc1ccccc1Nc1nc2ccccc2o1	n	60	n	n	n	x
Cc1cccc(C)c1Nc1nc2ccccc2o1	n	n	n	n	n	x
COCC(=O)Nc1ccc2c(c1)C(=O)N(C)[C@H]1CC[C@@H](CC(=O)NCc3ccccc3Cl)O[C@@H]1CO2	x	x	n	n	n	n
COc1ccc(C2Nc3ccccc3C(=O)N2c2ccc(C)cc2)cc1Cn1nnc2ccccc21 (centres undefined)	98	n	n	n	n	x
COc1ccc(C2Nc3ccccc3C(=O)N2c2ccc(C)cc2)cc1Cn1cc([N+](=O)[O-])cn1 (centres undefined)	91	n	n	n	n	n
CO[C@@H]1CN(C)C(=O)c2cc(NC(=O)c3ccccc3F)ccc2OC[C@H](C)N(C)C[C@@H]1C	x	x	n	n	n	n
OC[C@H]1O[C@@H](c2nc3ccc(-c4nc(-c5ccc(Br)cc5)no4)cc3[nH]2)C[C@@H]1O	x	n	n	55	n	n
Cc1ccc(C)c(NC(=O)N2CCc3ccccc3C2)c1	n	n	n	n	n	n
COc1cccc(NC(=O)N2CCc3nc(Nc4ccc(C(C)C)cc4)ncc3C2)c1	x	n	n	70	n	n
O=C(Nc1cccc(Cl)c1)N1CCc2ccccc2C1	x	n	n	50	n	n
O=C(Nc1ccc([N+](=O)[O-])cc1)N1CCc2ccccc2C1	n	n	n	51	n	n
O=C(Nc1ccccc1F)N1CCc2ccccc2C1	n	n	n	65	n	n
CC(C)c1ccc(NC(=O)N2CCc3ccccc3C2)cc1	n	u	x	x	x	x
CN(C)C(=O)C[C@@H]1CC[C@H]2[C@@H](COC[C@H](O)CN2C(=O)C2CC2)O1	x	x	n	n	x	n
CO[C@H]1CN(C)C(=O)c2ccc(NS(=O)(=O)c3ccc(-c4ccccc4)cc3)cc2OC[C@@H](C)NC[C@H]1C	x	x	n	n	n	x
CO[C@H]1CN(C)C(=O)c2ccc(NC(C)=O)cc2OC[C@H](C)N(CCc2ccccc2)C[C@H]1C	x	x	n	n	n	n
COc1cccc(NC(=O)N2CCc3ccccc3C2)c1	n	n	n	50	n	n
C[C@H](CO)N1C[C@H](C)[C@H](CN(C)Cc2ccc(Cl)c(Cl)c2)OCCCC[C@H](C)Oc2ccc(NC(=O)Nc3ccc(C(F)(F)F)cc3)cc2C1=O	x	x	n	n	n	n
COc1ccc(-c2cc(C(F)(F)F)nc(SCC(N)=O)n2)cc1	n	x	n	51	n	n
COc1ccc(-c2cc(C(F)(F)F)nc(SCCC(=O)N3CCN(C)CC3)n2)cc1	n	n	x	x	x	x
